# Results from publication PMC6259611, “Comparative Anti-Infectious Bronchitis Virus (IBV) Activity of (-)-Pinene: Effect on Nucleocapsid (N) Protein” (Molecules, 2011).
# What was measured:
# [1] = tested on: IBV (Gray strain); assay: Anti-IBV activity (inhibition of virus replication, MTT method); assay type: cell-based, Infectious bronchitis virus; details: CC50/IC50
# [2] = tested on: Vero-E6 cells; details: 72 h, MTT
smiles,measurement,setting,value
"NC(=O)c1ncn([C@@H]2O[C@H](CO)[C@@H](O)[C@H]2O)n1 [Ribavirin, ribavirin, reference compound]",SI (selective index),[1],>8.47
same,TD0 (maximum noncytotoxic concentration),[2],0.78 ± 0.15 mM
